Test results published in article PMC9919490, “Synthesis and Biological Evaluation of Novel Dispiro-Indolinones with Anticancer Activity” (Molecules, 2023).

Legend:
Type in all cases: cell-based
Conditions in all cases: 48 h
[1] = tested on: HCT^wt cells; assay: MTT cytotoxicity assay, HCT^wt (p53 pos)
Procedure: (§1) The synthesized compounds were tested for their ability to block the proliferation of the selected model cell lines: LNCaP (p53+), PC3 (p53-), HCT^wt (p53+), and HCT^−/− (p53-) cells. The assay was carried out using the standard MTT (3-(4,5-dimethylthiazol-2-yl)2,5-diphenyl tetrazolium bromide) assay based on the modified approach reported by Ferrari and colleagues. […] Differences in IC50 values against these cell lines were used to assess the selectivity of the compounds.
(§2) Model cell lines were purchased from the in stock collection of the N.N. Blokhin Russian Cancer Research Center (RAMS). Cells were accurately maintained in the recommended media, supplemented with 10% heat-inactivated FBS (Invitrogen) and 2 mmol/L L-glutamine (Invitrogen).
(§3) First, 4000 cells per well were plated out in 140 µL of DMEM (with 10% FBS) in 96-well plates and incubated in 5% CO2 for 24 h at 37 °C without treatment. […] The cells were treated for 48 h with […] (eight dilutions) concentrations of the substances (each in triplicate) or doxorubicin (0.3 nM–600 nM, eight dilutions) as a control substance. […] Cell survival rates were determined by the comparison of optical density with the corresponding untreated control cell culture. Dose-dependent curves and the corresponding IC50 values were calculated using “GraphPad Prism 6” software (GraphPad Software, Inc., San Diego, CA, USA).

[2] = tested on: HCT^−/− cells; assay: MTT cytotoxicity assay, HCT^−/− (p53 neg)
Procedure: as §1, §2, §3

[3] = tested on: LNCaP cells; assay: MTT cytotoxicity assay, LNCaP (p53 pos)
Procedure: as §1, §2, §3

[4] = tested on: PC3 cells; assay: MTT cytotoxicity assay, PC3 (p53 neg)
Procedure: as §1, §2, §3

Measured: IC50

1-phenyl-4'-phenyl-1'-methyl-7'''-carboxy-2-thiooxodispiro[imidazolidine-4,3’-pyrrolidine-2',3”-indoline]-2”,5-dione [Compound 7]
> 100 µM: all assays above

1-phenyl-4'-phenyl-1'-methyl-5'''-nitro-2-thiooxodispiro[imidazolidine-4,3’-pyrrolidine-2',3"-indoline]-2",5-dione [Compound 6]
> 100 µM: all assays above
